The source of these data is patent US20090275546A1, “Diagnostic tests and personalized treatment regimes for cancer stem cells” (Istituto Superiore di Sanita, priority 2008, published 2009).

The subject of the test is colon CSCs. Kind of test: kinase inhibitor library screening, ATP-based viability assay. Type of test: cell-based, human.

Regarding `N#CC(=C(/N)Sc1ccccc1N)/C(C#N)=C(\N)Sc1ccccc1N` [U0126], the “effect on colon CSC proliferation / number versus DMSO controls” value is “significantly lead to a reduction in colon CSC numbers”.
